Experiments:
[1] = biological target: Delta-type opioid receptor (Rattus norvegicus, UniProt P33533); assay: Displacement of [3H]DPDPE from rat DOR expressed in CHO cells membrane assessed as inhibition constant incubated for 1 hrs by liquid scintillation counting method
[2] = biological target: Kappa-type opioid receptor (Homo sapiens, UniProt P41145); assay: Displacement of [3H]U69593 from human KOR expressed in CHO cells membrane assessed as inhibition constant incubated for 1 hrs by liquid scintillation counting method
Mu-type opioid receptor = Mu-type opioid receptor (Rattus norvegicus, UniProt P33535); assay: Displacement of [3H]-DAMGO from rat MOR receptor expressed in CHO cell membrane assessed as inhibition constant incubated for 1 hrs by liquid scintillation counting method

Protein sequences, listed by entry. Tags and fused reporters are not part of them.
UniProt P33533, whole entry: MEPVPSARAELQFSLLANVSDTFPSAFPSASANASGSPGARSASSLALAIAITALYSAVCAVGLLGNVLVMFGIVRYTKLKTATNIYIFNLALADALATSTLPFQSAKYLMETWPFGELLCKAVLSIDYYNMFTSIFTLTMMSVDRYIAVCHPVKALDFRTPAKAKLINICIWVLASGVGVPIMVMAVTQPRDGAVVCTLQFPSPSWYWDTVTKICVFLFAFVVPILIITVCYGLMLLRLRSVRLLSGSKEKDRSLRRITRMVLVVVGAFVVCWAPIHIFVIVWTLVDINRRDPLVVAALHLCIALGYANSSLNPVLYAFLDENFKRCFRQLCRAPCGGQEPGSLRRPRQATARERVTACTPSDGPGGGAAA
UniProt P41145, whole entry: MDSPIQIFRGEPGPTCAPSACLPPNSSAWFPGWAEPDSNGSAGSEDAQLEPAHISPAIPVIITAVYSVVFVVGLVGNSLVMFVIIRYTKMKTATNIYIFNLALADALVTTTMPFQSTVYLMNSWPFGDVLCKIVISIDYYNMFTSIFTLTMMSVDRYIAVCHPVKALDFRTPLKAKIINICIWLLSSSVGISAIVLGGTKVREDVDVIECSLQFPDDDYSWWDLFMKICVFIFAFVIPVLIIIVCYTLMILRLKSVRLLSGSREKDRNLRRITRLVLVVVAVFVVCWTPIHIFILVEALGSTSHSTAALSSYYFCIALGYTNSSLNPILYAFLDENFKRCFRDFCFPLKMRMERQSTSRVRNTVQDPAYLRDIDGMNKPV
UniProt P33535, whole entry: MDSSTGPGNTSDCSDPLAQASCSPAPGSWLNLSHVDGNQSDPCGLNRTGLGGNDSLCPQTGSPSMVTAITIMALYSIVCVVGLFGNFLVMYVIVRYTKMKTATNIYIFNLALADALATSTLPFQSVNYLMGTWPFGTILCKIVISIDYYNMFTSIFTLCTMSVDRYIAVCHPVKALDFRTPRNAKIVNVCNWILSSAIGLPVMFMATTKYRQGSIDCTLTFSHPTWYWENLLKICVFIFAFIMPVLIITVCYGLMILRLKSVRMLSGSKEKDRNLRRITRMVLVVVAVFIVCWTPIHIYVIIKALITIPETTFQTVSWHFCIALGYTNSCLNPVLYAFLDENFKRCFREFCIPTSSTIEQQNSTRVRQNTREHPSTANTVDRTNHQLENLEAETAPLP

Question: What does the source list for `CNc1ccccc1[C@H]1C[C@@]23CC[C@]1(OC)[C@@H]1Oc4c(OC)ccc5c4[C@@]12CCN(CC1CC1)[C@@H]3C5`?
Answer: Ki [1]: 216 nM; Ki [2]: 70.1 nM; Ki (Mu-type opioid receptor): 28.6 nM
